The values that follow come from patent US6544984B1, “2,3,4,5-tetrahydro-1H-(1,4)benzodiazepine-3-hydroxamic acids” (American Cyanamid Company, priority 1999, dated 2003).

By UniProt entry, the sequences of proteins in these tests, tags left out. Residues count along the entry.
UniProt P78536, 215-824 limits assumed: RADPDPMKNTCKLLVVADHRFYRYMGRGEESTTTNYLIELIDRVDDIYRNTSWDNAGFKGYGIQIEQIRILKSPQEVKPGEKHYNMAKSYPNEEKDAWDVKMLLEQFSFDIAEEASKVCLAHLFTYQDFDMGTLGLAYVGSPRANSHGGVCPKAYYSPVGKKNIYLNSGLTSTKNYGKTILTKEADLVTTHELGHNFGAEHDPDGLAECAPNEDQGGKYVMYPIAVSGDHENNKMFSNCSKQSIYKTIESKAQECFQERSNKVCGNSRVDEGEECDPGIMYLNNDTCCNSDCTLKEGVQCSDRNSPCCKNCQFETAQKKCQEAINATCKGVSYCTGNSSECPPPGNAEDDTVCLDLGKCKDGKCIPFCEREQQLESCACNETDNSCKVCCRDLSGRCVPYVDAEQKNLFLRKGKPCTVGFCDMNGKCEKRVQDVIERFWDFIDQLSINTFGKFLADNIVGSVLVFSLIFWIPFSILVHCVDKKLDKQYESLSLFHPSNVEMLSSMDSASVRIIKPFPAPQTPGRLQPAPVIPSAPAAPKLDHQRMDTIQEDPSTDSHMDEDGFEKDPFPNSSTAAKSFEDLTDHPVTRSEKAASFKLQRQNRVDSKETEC

The experiment has as its target TACE (Homo sapiens, UniProt P78536). In words: Procedure for measuring TACE inhibition (fluorescent peptidyl substrate). The following applies: read-out: IC50 (nM) TACE.

The term IC50 denotes the point on the concentration scale where inhibition reaches its midpoint. Turning to `CC#CCOc1ccc(S(=O)(=O)N2Cc3ccccc3N(C(=O)C3CC3)CC2C(=O)NO)cc1` (stereo not shown) [Example 58, 1-Cyclopropylcarbonyl-4-(4-but-ynyloxybenzenesulfonyl)-2,3,4,5-tetrahydro-1H-[1,4]benzodiazepine-3-carboxylic acid, hydorxyamide], the IC50 was 10 nM.
